Reference: patent US20040023884A1, “Biologically active peptides from functional domains of bactericidal/permeability-increasing protein and uses thereof” (priority 1993, published 2004)

Tests used:
[1] = tested on: rough mutant E. coli J5 bacteria; assay: Radial diffusion bactericidal assay, E. coli J5; format: cell-based; settings: PROBIT analysis
Protocol: BPI proteolytic fragments produced according to Example 1 were screened for bactericidal effects using rough mutant E. coli J5 bacteria in a radial diffusion assay. Specifically, an overnight culture of E. coli J5 was diluted 1:50 into fresh tryptic soy broth and incubated for 3 hours at 37° C. to attain log phase growth of the culture. Bacteria were then pelleted at 3,000 rpm for 5 minutes in a Sorvall RT6000B centrifuge (Sorvall Instruments, Newton, Conn.). 5 mL of 10 mM sodium phosphate buffer (pH 7.4) was added and the preparation was re-pelleted. […] The bacteria were diluted to 4×10^6 CFU/mL in 10 mL of molten underlayer agarose (at approximately 45° C.) and inverted repeatedly to mix in 15 mL polypropylene tubes conventionally used for this purpose.
The entire contents of such tubes were then poured into a level square petri dish and distributed evenly by rocking the dish side-to-side. […] A series of wells were then punched into the hardened agarose using a sterile 3 mm punch attached to a vacuum apparatus. The punch was sterilized with 100% alcohol and allowed to air dry prior to use to avoid contaminating the bacterial culture.
5 or 10 μL of each of the BPI fragments were carefully pipetted into each well. As a negative control, dilution buffer (pH 8.3) was added to a separate well, and rBPI23 at concentrations of 5 μg/mL and 1 μg/mL were also added as positive controls. Each plate was incubated at 37° C. for 3 hours, and then 10 mL of molten overlayer agarose (at approximately 45° C.) was added into the level petri dish, allowed to harden and incubated overnight at 37° C. […] The bacterial zones were measured with a micrometer.

[2] = Lipid A binding competition with [125I]-rLBP
Protocol: A second binding assay was developed, wherein radiolabeled recombinant LPS binding protein ([^125I]-rLBP) was used instead of radiolabeled rBPI23 in competition experiments with BPI functional domain peptides BPI.2, BPI.3, BPI.4, BPI.5, BPI.7, BPI.13, BPI.14, BPI.29, BPI.30 and BPI.48, rBPI, rBPI21Δcys, and rLBP25 were included in these assays as controls. In these experiments, Lipid A was adsorbed to the wells at a concentration of 0.7 μg/mL in methanol. Incubation of radiolabeled rLBP (a total of 650,000 cpm and a specific activity of 3.45 μCi/μg) was performed for 2.5 hr at 37° C. in the presence of BPI peptides in a series of increasing concentrations. IC50 values (i.e., the concentration at which Lipid A binding of radiolabeled rLBP25 is inhibited to one half the value achieved in the absence of the peptide) are shown in accompanying Table XI.

[3] = tested on: LPS-stimulated NO production by RAW 264.7 cells; assay: LPS-stimulated NO production by RAW 264.7 cells; format: cell-based, mouse
Protocol: An additional LPS neutralization screening assay for BPI functional domain peptides was developed using an assay for NO production in mouse cells treated with LPS (see Lorsbach et al., 1993, J. Biol. Chem. 268: 1908-1913). In this assay, mouse RAW 264.7 cells (ATCC Accession No. TIB71) were treated with bacterial LPS. The cells were incubated in 96-well plates and stimulated for 2 hours with E. coli 0113 LPS or zymosan, in the presence or absence of _-interferon, rLBP, fetal bovine serum (FBS) or normal human serum (NHS), or rBPI21Δcys. After this incubation, the cells were washed with fresh media and incubated overnight in media containing 10% FCS. The NO released from the cells accumulated in the media and spontaneously converted to nitrite. This nitrite was assayed in situ by the Griess reaction, as follows. The nitrite was reacted with the primary amine of an added sulfanilamide and formed a diazonium salt. This salt was then reacted with added naphthylethylenediamine to form a red azo-dyc. The Griess reaction was performed at room temperature in about 10 minutes. The amount of produced NO was estimated from a standard curve of Griess reaction products determined spectrophotometrically as Absorbance at a wavelength of 550 nm.

CC[C@H](C)[C@H](NC(=O)[C@H](CCCCN)NC(=O)[C@H](CCCCN)NC(=O)[C@H](Cc1c[nH]cn1)NC(=O)[C@H](Cc1ccccc1)NC(=O)[C@H](CC(C)C)NC(=O)[C@H](CCC(N)=O)NC(=O)[C@@H](NC(=O)[C@H](CC(C)C)NC(=O)[C@H](Cc1c[nH]c2ccccc12)NC(=O)CNC(=O)[C@@H](NC(=O)[C@H](CCCCN)NC(=O)[C@H](CO)NC(=O)[C@H](CCCCN)NC(=O)[C@H](CO)NC(=O)[C@@H](NC(=O)[C@H](Cc1c[nH]cn1)NC(=O)[C@@H](NC(=O)[C@H](Cc1c[nH]cn1)NC(=O)[C@@H](N)C(C)C)C(C)C)[C@@H](C)CC)C(C)C)[C@@H](C)CC)C(=O)N[C@@H](CCC(=O)O)C(=O)O [BPI.5]
pmol added to well to achieve a 30 mm^2 bactericidal zone, E. coli J5 [1]: 398.10 pmol | IC50 (inhibition of Lipid A binding of radiolabeled rLBP) [2]: 4.42 µg/mL | IC50 ([2]; read-out: IC50 (inhibition of Lipid A binding of radiolabeled rLBP)): 1700 nM | inhibition of LPS-stimulated NO production (in words) [3]: detectable levels of LPS neutralization
